# Test results from publication PMC3676400, “3-Oxoacyl-ACP Reductase from Schistosoma japonicum: Integrated In Silico-In Vitro Strategy for Discovering Antischistosomal Lead Compounds” (PLoS ONE, 2013).
# Test system: NADPH
# Test: purified protein, by the assay type
# Details: other: S. japonicum; pH 6.8; 37.0 °C
substance,measurement,value
rSjOAR (Schistosoma japonicum),Km,93.6 ± 4.2 µM
